Measurements as given in US11186582B2, “Substituted [1,2,4]triazolo[1,5-a]pyrimidin-7-yl compounds as PDE2 inhibitors” (DART NEUROSCIENCE (CAYMAN) LTD., priority 2014, dated 2021).

Sequences of proteins named here, by UniProt entry; tags and fusion partners are left off. Residues count along the entry.
UniProt O00408, 2-941: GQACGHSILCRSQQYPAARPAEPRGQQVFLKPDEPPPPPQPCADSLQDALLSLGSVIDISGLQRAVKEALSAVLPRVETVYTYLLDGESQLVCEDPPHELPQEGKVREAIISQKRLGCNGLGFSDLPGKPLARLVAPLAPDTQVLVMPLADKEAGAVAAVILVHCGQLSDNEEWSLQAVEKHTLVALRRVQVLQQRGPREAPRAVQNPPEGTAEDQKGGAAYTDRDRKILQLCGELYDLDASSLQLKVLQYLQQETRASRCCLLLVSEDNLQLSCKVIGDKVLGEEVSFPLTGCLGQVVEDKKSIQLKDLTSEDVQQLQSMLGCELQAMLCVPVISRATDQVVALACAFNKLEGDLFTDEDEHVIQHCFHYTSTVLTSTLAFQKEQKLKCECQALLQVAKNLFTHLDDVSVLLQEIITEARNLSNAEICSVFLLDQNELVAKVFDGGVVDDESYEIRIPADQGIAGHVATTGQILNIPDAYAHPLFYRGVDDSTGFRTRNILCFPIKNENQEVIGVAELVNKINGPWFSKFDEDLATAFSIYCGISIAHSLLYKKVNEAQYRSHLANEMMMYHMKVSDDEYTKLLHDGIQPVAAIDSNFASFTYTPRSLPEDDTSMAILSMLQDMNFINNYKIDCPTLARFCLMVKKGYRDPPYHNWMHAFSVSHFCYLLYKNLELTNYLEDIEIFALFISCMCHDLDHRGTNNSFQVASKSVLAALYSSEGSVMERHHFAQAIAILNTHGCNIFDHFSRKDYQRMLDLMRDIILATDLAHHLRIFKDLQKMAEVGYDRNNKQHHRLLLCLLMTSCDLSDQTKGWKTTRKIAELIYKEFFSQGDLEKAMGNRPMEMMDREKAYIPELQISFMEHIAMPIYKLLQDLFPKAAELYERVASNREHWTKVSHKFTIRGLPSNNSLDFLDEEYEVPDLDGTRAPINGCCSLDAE

Target: FLAG-tagged PDE2A1 (amino acids 2-941) (Homo sapiens (Human), UniProt O00408)
Assay: IMAP TR-FRET PDE2A phosphodiesterase enzymatic assay
Settings: not given

| Compound | IC50 [µM] |
| --- | --- |
| Cc1cc(C2CCCN(C(=O)c3sc(C)nc3C)C2)n2ncnc2n1 (stereo not shown) [Example 473, 1-[(Dimethyl-1,3-thiazol-5-yl)carbonyl]-3-{5-methyl-[1,2,4]triazolo[1,5-a]pyrimidin-7-yl}piperidine] | 1 to 10 |
| Cc1cc(C2CCCN(Cc3ccc(-c4ccccc4)cc3)C2)n2ncnc2n1 (stereo not shown) [Example 13, 7-(1-([1,1′-Biphenyl]-4-ylmethyl)piperidin-3-yl)-5-methyl-[1,2,4]triazolo[1,5-a]pyrimidine] | 0.1 to 1 |
| COc1ccc(C(C)C)cc1CN1CCCC(c2cc(C)nc3ncnn23)C1 (stereo not shown) [Example 96, 1-{[2-Methoxy-5-(propan-2-yl)phenyl]methyl}-3-{5-methyl-[1,2,4]triazolo[1,5-a]pyrimidin-7-yl}piperidine] | > 10 |
| Cc1cc(C2CCCN(Cc3ccc4ccccc4n3)C2)n2ncnc2n1 (stereo not shown) [Example 69, 2-[(3-{5-Methyl-[1,2,4]triazolo[1,5-a]pyrimidin-7-yl}piperidin-1-yl)methyl]quinoline] | 0.1 to 1 |
| Cc1cc(C2CN(C(=O)c3ccc(F)cc3)CCO2)n2ncnc2n1 (stereo not shown) [Example 212, 4-[(4-Fluorophenyl)carbonyl]-2-{5-methyl-[1,2,4]triazolo[1,5-a]pyrimidin-7-yl}morpholine] | 1 to 10 |
| Cc1cc(C2CN(C(=O)c3ccc(C(F)(F)F)nc3C)CCO2)n2ncnc2n1 (stereo not shown) [Example 267, 4-{[2-Methyl-6-(trifluoromethyl)pyridin-3-yl]carbonyl}-2-{5-methyl-[1,2,4]triazolo[1,5-a]pyrimidin-7-yl}morpholine] | > 10 |
| Cc1cc(C2CCCN(Cc3cccc(-c4ccco4)c3)C2)n2ncnc2n1 (stereo not shown) [Example 45, 1-{[3-(Furan-2-yl)phenyl]methyl}-3-{5-methyl-[1,2,4]triazolo[1,5-a]pyrimidin-7-yl}piperidine] | 0.1 to 1 |
| Cc1cc(C2CCCN(Cc3ccc(-c4nccs4)cc3)C2)n2ncnc2n1 (stereo not shown) [Example 147, 3-{5-Methyl-[1,2,4]triazolo[1,5-a]pyrimidin-7-yl}-1-{[4-(1,3-thiazol-2-yl)phenyl]methyl}piperidine] | 0.1 to 1 |
| Cc1cc(C2CCCN(Cc3ccc4ccncc4c3)C2)n2ncnc2n1 (stereo not shown) [Example 154, 7-[(3-{5-Methyl-[1,2,4]triazolo[1,5-a]pyrimidin-7-yl}piperidin-1-yl)methyl]isoquinoline] | 0.1 to 1 |
| Cc1cc(C2CCCN(C(=O)c3cccc(F)c3C)C2)n2ncnc2n1 (stereo not shown) [Example 469, 1-[(3-Fluoro-2-methylphenyl)carbonyl]-3-{5-methyl-[1,2,4]triazolo[1,5-a]pyrimidin-7-yl}piperidine] | 1 to 10 |
| Cc1cc(C2CN(C(=O)c3ccc(F)c(Br)c3)CCO2)n2ncnc2n1 (stereo not shown) [Example 231, 4-[(3-Bromo-4-fluorophenyl)carbonyl]-2-{5-methyl-[1,2,4]triazolo[1,5-a]pyrimidin-7-yl}morpholine] | 0.1 to 1 |
| Cc1cc(C2CCCN(Cc3ccc(Cl)c(C(F)(F)F)c3)C2)n2ncnc2n1 (stereo not shown) [Example 164, 1-{[4-Chloro-3-(trifluoromethyl)phenyl]methyl}-3-{5-methyl-[1,2,4]triazolo[1,5-a]pyrimidin-7-yl}piperidine] | 1 to 10 |
| Cc1cc(C2CCCN(C(=O)c3cccnc3)C2)n2ncnc2n1 (stereo not shown) [Example 387, 3-[(3-{5-Methyl-[1,2,4]triazolo[1,5-a]pyrimidin-7-yl}piperidin-1-yl)carbonyl]pyridine] | 1 to 10 |
| Cc1cc([C@@H]2CN(C(=O)[C@@H]3COc4ccccc4C3)CCO2)n2ncnc2n1 [Example 376, (2S)-4-[(3S)-3,4-Dihydro-2H-1-benzopyran-3-carbonyl]-2-{5-methyl-[1,2,4]triazolo[1,5-a]pyrimidin-7-yl}morpholine] | 1 to 10 |
| Cc1cc(C2CCCN(Cc3cccc(C#N)c3)C2)n2ncnc2n1 (stereo not shown) [Example 175, 3-[(3-{5-Methyl-[1,2,4]triazolo[1,5-a]pyrimidin-7-yl}piperidin-1-yl)methyl]benzonitrile] | 1 to 10 |
| Cc1cc(C2CN(C(=O)c3ccc4c(c3)OC(F)(F)O4)CCO2)n2ncnc2n1 (stereo not shown) [Example 560, 4-(2,2-Difluoro-2H-1,3-benzodioxole-5-carbonyl)-2-{5-methyl-[1,2,4]triazolo[1,5-a]pyrimidin-7-yl}morpholine] | 1 to 10 |
| Cc1cc(C2CCCN(C(=O)c3c(C)cccc3C)C2)n2ncnc2n1 (stereo not shown) [Example 494, 1-[(2,6-Dimethylphenyl)carbonyl]-3-{5-methyl-[1,2,4]triazolo[1,5-a]pyrimidin-7-yl}piperidine] | 1 to 10 |
| Cc1cc(C2CCCN(Cc3cc(F)cc(C(F)(F)F)c3)C2)n2ncnc2n1 (stereo not shown) [Example 181, 1-{[3-Fluoro-5-(trifluoromethyl)phenyl]methyl}-3-{5-methyl-[1,2,4]triazolo[1,5-a]pyrimidin-7-yl}piperidine] | 0.1 to 1 |
| Cc1cc([C@@H]2CCCN(C(=O)[C@@H]3COc4ccccc4C3)C2)n2ncnc2n1 [Example 334, (3R)-1-[(3S)-3,4-Dihydro-2H-1-benzopyran-3-carbonyl]-3-{5-methyl-[1,2,4]triazolo[1,5-a]pyrimidin-7-yl}piperidine] | 1 to 10 |
| Cc1cc(C2CCCN(Cc3ccc(F)c(Cl)c3)C2)n2ncnc2n1 (stereo not shown) [Example 79, 1-[(3-Chloro-4-fluorophenyl)methyl]-3-{5-methyl-[1,2,4]triazolo[1,5-a]pyrimidin-7-yl}piperidine] | 1 to 10 |
| Cc1ccnc(C(=O)N2CCCC(c3cc(C)nc4ncnn34)C2)c1 (stereo not shown) [Example 385, 4-Methyl-2-[(3-{5-methyl-[1,2,4]triazolo[1,5-a]pyrimidin-7-yl}piperidin-1-yl)carbonyl]pyridine] | 0.1 to 1 |
| COc1ccc(CN2CCCC(c3cc(C)nc4ncnn34)C2)cc1 (stereo not shown) [Example 94, 1-[(4-Methoxyphenyl)methyl]-3-{5-methyl-[1,2,4]triazolo[1,5-a]pyrimidin-7-yl}piperidine] | 1 to 10 |
| Cc1cc(C2CCCN(Cc3cccc(-c4cccnc4)c3)C2)n2ncnc2n1 (stereo not shown) [Example 38, 3-{3-[(3-{5-Methyl-[1,2,4]triazolo[1,5-a]pyrimidin-7-yl}piperidin-1-yl)methyl]phenyl}pyridine] | 0.1 to 1 |
| Cc1cc(C2CCCN(C(=O)c3ccc(F)c(F)c3)C2)n2ncnc2n1 (stereo not shown) [Example 486, 1-[(3,4-Difluorophenyl)carbonyl]-3-{5-methyl-[1,2,4]triazolo[1,5-a]pyrimidin-7-yl}piperidine] | 1 to 10 |
| Cc1cc(C2CCCN(Cc3ccc(-c4cccc(Cl)c4)cc3)C2)n2ncnc2n1 (stereo not shown) [Example 17, 1-{[4-(3-Chlorophenyl)phenyl]methyl}-3-{5-methyl-[1,2,4]triazolo[1,5-a]pyrimidin-7-yl}piperidine] | 0.1 to 1 |
| Cc1cc(C2CN(C(=O)c3ccc4c(c3)OCCO4)CCO2)n2ncnc2n1 (stereo not shown) [Example 551, 4-(2,3-Dihydro-1,4-benzodioxine-6-carbonyl)-2-{5-methyl-[1,2,4]triazolo[1,5-a]pyrimidin-7-yl}morpholine] | 0.1 to 1 |
| Cc1cc(C2CCCN(Cc3cc(-c4ccc(Cl)cc4)ccc3F)C2)n2ncnc2n1 (stereo not shown) [Example 33, 1-{[5-(4-Chlorophenyl)-2-fluorophenyl]methyl}-3-{5-methyl-[1,2,4]triazolo[1,5-a]pyrimidin-7-yl}piperidine] | 1 to 10 |
| Cc1cc(C2CCCN(C(=O)C3Cc4ccccc4CN3C)C2)n2ncnc2n1 (stereo not shown) [Example 356, 2-Methyl-3-[(3-{5-methyl-[1,2,4]triazolo[1,5-a]pyrimidin-7-yl}piperidin-1-yl)carbonyl]-1,2,3,4-tetrahydroisoquinoline] | 0.1 to 1 |

Same assay, conditions: IMAP TR-FRET, 200 nM FAM-cAMP substrate, 11-point half-log dose-response

| Compound | PDE2 (pIC50) |
| --- | --- |
| Cc1cc(C2CCCN(C(=O)c3cccc(-c4ccccc4)c3)C2)n2ncnc2n1 (stereo not shown) [Example 461, 3-{5-Methyl-[1,2,4]triazolo[1,5-a]pyrimidin-7-yl}-1-[(3-phenylphenyl)carbonyl]piperidine] | >7 |
| Cc1cc(C2CCCN(C(=O)c3ccc4ccccc4n3)C2)n2ncnc2n1 (stereo not shown) [Example 406, 2-[(3-{5-Methyl-[1,2,4]triazolo[1,5-a]pyrimidin-7-yl}piperidin-1-yl)carbonyl]quinoline] | >7 |
| Cc1cc(C2CN(C(=O)c3ccc4c(c3)CCC4)CC(F)(F)C2)n2ncnc2n1 (stereo not shown) [Example 524, 1-(2,3-Dihydro-1H-indene-5-carbonyl)-3,3-difluoro-5-{5-methyl-[1,2,4]triazolo[1,5-a]pyrimidin-7-yl}piperidine] | >7 |
| Cc1cc(C2CCCN(C(=O)c3cn(C)c4ccccc34)C2)n2ncnc2n1 (stereo not shown) [Example 420, 1-Methyl-3-[(3-{5-methyl-[1,2,4]triazolo[1,5-a]pyrimidin-7-yl}piperidin-1-yl)carbonyl]-1H-indole] | >7 |
| Cc1cc([C@@H]2CN(C(=O)c3cc(F)cc(Br)c3)CC(F)(F)C2)n2ncnc2n1 [Example 271, (5S)-1-(3-Bromo-5-fluorobenzoyl)-3,3-difluoro-5-{5-methyl-[1,2,4]triazolo[1,5-a]pyrimidin-7-yl}piperidine] | >7 |
| Cc1cc(C2CN(C(=O)c3ccc4c(c3)OCO4)CC(F)(F)C2)n2ncnc2n1 (stereo not shown) [Example 518, 1-(2H-1,3-Benzodioxole-5-carbonyl)-3,3-difluoro-5-{5-methyl-[1,2,4]triazolo[1,5-a]pyrimidin-7-yl}piperidine] | >7 |
| Cc1cc([C@H]2CCCN(Cc3cc(F)c(C(F)(F)F)c(F)c3)C2)n2ncnc2n1 [Example 190, (3S)-1-{[3,5-Difluoro-4-(trifluoromethyl)phenyl]methyl}-3-{5-methyl-[1,2,4]triazolo[1,5-a]pyrimidin-7-yl}piperidine] | >7 |
| Cc1cc(C2CN(C(=O)c3ccc4ccccc4n3)CC(F)(F)C2)n2ncnc2n1 (stereo not shown) [Example 290, 2-[(3,3-Difluoro-5-{5-methyl-[1,2,4]triazolo[1,5-a]pyrimidin-7-yl}piperidin-1-yl)carbonyl]quinoline] | >7 |
| Cc1cc([C@@H]2CN(C(=O)c3cc(Cl)c(Cl)c(Cl)c3)CC(F)(F)C2)n2ncnc2n1 [Example 312, (5S)-3,3-Difluoro-5-{5-methyl-[1,2,4]triazolo[1,5-a]pyrimidin-7-yl}-1-(3,4,5-trichlorobenzoyl)piperidine] | >7 |
